Test results as given in patent publication US20070232520A1 (YEDA RESEARCH AND DEVELOPMENT, published 2007).

What was measured:
[1] = biological target: T1, full-length 55.11 protein (55.11-full) (human, UniProt Q13200 11-899, limits assumed); assay: in vitro pull-down: 35S-labelled protein from HeLa lysate on GST on glutathione-agarose beads, SDS-PAGE, autoradiography
T1 construct: Expressed in transfected HeLa cells and labelled with [35S]Met and [35S]Cys
T1 sequence: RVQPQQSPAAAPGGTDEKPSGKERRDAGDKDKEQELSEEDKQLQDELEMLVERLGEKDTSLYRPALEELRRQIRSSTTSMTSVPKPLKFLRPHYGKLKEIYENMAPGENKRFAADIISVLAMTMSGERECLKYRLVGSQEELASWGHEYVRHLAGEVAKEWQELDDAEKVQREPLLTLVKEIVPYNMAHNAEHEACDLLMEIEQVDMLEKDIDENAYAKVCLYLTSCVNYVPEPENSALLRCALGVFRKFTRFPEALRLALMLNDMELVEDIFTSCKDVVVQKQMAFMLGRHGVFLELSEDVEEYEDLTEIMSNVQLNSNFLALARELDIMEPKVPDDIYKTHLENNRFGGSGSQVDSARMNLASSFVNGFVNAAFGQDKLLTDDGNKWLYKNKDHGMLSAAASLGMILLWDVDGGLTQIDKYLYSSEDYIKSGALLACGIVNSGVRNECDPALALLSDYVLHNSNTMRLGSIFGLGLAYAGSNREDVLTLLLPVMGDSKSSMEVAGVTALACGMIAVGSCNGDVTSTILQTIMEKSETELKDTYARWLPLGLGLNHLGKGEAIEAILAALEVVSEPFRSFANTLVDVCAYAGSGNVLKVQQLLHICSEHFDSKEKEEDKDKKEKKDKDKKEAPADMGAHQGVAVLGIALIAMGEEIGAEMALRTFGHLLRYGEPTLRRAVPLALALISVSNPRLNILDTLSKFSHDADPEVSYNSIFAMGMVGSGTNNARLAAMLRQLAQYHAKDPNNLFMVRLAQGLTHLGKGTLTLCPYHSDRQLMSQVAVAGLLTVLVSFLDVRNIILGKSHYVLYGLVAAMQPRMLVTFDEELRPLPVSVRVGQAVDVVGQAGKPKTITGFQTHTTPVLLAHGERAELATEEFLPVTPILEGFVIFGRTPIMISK

[2] = biological target: T2, FLAG-55.11 (residues 309-900 of 55.11 fused at the N terminus with the FLAG octapeptide) (human, UniProt Q13200 318-899); assay: as above
T2 construct: Expressed in transfected HeLa cells and labelled with [35S]Met and [35S]Cys; not shown: FLAG octapeptide (Eastman Kodak)
T2 sequence: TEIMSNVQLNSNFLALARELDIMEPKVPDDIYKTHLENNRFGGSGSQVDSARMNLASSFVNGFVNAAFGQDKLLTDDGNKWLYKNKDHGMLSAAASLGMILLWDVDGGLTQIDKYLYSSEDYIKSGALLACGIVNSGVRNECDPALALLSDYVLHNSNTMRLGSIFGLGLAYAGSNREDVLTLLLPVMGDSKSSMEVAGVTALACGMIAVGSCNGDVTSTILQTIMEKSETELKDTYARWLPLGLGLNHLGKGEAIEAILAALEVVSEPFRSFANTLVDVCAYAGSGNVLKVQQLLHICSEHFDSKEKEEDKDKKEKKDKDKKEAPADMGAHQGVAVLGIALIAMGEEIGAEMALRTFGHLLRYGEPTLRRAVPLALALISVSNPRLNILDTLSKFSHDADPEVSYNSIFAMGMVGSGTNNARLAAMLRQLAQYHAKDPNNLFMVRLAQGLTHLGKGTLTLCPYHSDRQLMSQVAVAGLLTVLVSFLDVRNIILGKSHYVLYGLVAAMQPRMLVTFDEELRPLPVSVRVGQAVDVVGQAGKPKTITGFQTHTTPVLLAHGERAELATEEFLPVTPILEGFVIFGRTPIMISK

binding result [1]: no binding
binding result [2]: no binding
B1: GST alone (control) (other, UniProt P08515 1-218, looked up)
chain: MSPILGYWKIKGLVQPTRLLLEYLEEKYEEHLYERDEGDKWRNKKFELGLEFPNLPYYIDGDVKLTQSMAIIRYIADKHNMLGGCPKERAEISMLEGAVLDIRYGVSRIAYSKDFETLKVDFLSKLPEMLKMFEDRLCHKTYLNGDHVTHPDFMLYDALDVVLYMDPMCLDAFPKLVCFKKRIEAIPQIDKYLKSSKYIAWPLQGWQATFGGGDHPPK
notes: Control on glutathione-agarose beads
